Source: patent US10189782B2, “Derivatives of indole for the treatment of cancer, viral infections and lung diseases” (BIOKINESIS, priority 2012, dated 2019)

Biological target: T1, Human recombinant MKlp2 motor domain1-519, His tagged (Homo sapiens, UniProt O95235)
T1 construct: Human recombinant MKlp2 motor domain1-519, His tagged; His; purchased Cytoskeleton MP05
T1 sequence (O95235 1-519): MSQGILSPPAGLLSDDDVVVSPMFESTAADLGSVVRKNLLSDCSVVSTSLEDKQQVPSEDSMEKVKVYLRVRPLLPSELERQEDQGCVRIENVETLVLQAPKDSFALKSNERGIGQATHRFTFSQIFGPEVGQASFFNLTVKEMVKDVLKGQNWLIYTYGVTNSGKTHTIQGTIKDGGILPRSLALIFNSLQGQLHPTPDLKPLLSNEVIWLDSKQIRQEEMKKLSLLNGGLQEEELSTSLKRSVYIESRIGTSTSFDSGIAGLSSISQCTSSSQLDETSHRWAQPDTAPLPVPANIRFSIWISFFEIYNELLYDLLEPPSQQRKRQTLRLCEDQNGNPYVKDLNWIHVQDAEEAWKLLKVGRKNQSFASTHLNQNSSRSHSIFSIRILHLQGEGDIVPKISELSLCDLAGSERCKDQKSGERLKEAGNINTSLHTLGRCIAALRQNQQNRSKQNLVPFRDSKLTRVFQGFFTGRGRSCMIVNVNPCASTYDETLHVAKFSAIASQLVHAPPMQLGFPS
Experiment: Microtubule stimulated ATPase activity of the MKlp2 motor domain (Kinesin ELIPA Assay Kit)
Type: biochemical
Details: MKIp2 IC50 (μM), Table 3, 22° C.
Protocol: Evaluation of Inhibitory Effects on the Microtubule Stimulated ATPase Activity of the MKlp2 Motor Domain.
MKlp2 ATPase activity was measured by monitoring real time free phosphate generation using the Kinesin ELIPA Assay Kit. The assay is based upon an absorbance shift (330 nm-360 nm) that occurs when 2-amino-6-mercapto-7-methylpurine ribonucleoside (MESG) is catalytically converted to 2-amino-6-mercapto-7-methylpurine in the presence of inorganic phosphate (Pi). One molecule of Pi will yield one molecule of 2-amino-6-mercapto-7-methylpurine in an essentially irreversible reaction.
All experiments were performed at 22° C.
Condition 1, compound preparation.
The compounds were dissolved in DMSO at 30× the maximum concentration to be tested. […] DMSO solutions were pipetted directly into each well.
Condition 2, reaction's “motor mix”.
The following were mixed sequentially in the specified order at RT to obtain the “motor mix”.
20 mL: 15 mM Pipes-NaOH pH 7.0, 10 mM MgCl2, 30 μM Tx (Buffer 1).
10 mL: 5× MSEG (ELIPA 1 reagent, Cat. # BK051).
10 mL: 2.5 mg/mL porcine brain microtubules (3×10 mg Cat. # MT002-XL resuspended in 12 mL of Buffer 1).
0.5 mL: 100×PNP (ELIPA 2 reagent, cat. # BK051). […]
The reactions were measured in a SpectraMax M2 (Molecular Devices) set in kinetic mode and 360 nm absorbance wavelength. The start protocol was 5 second rapid circular mixing, 21 readings, 30 seconds apart.

## N#CC(=Cc1cccnc1)c1c[nH]c2ccc(Br)cc12 [W02010/150211-Example 37, reference compound]
  IC50: 1.5 µM
